From patent publication US9988381B2, “Five-member-heterocycle fused pyridine compounds, method of producing the same, and use thereof” (SHANGHAI INSTITUTE OF MATERIA MEDICA, CHINESE ACADEMY OF …, priority 2013, dated 2018)

Test system: human lung cancer EBC-1 xenograft
Assay: Test IV: human non-small cell lung cancer EBC-1 xenograft growth in nude mice
Type: in vivo
Conditions: for mice exhibiting complete tumor regression at day 11: 100 mg/kg po; for inhibition against tumor growth of EBC-1 subcutaneous xenograft (in words): 50 and 100 mg/kg po daily, d21
Experimental: EBC-1 cells were implanted subcutaneously in the right axilla of nude mice at 5×10^6 cells per mouse, xenograft developed thereby was passaged in nude mice for 3 generations prior to use. Tumor tissue at rapid growth phase was taken, minced under sterile condition into pieces of about 1.5 mm^3, then implanted subcutaneously in the right axilla of nude mice.
Xenografted tumor diameters were measured twice per week, and body weights of the mice were measured at the same time. Tumor Volume (TV) was calculated by the following equation: TV=1/2×a×b^2, wherein a, b refers to the length and width, respectively. Based on the measurement, Relative Tumor Volume (RTV) was calculated by the following equation: RTV=Vt/V0, wherein V0 is the tumor volume measured when divided for administration (i.e., do), Vt is the tumor volume measured at each timepoint.

`CN1CCN(C(=O)c2ccc(-c3cnc4cnn(S(=O)(=O)c5cnc6ccc(-c7cnn(C)c7)cn56)c4c3)cc2)CC1` [Example 142, 1-{(6-[(1-methyl)-4-pyrazolyl]-imidazo[1,2-a]pyridine)-3-sulfonyl}-6-[4-(4-methylpiperazine-1-carbonyl)phenyl]-1-H-pyrazolo[4,3-b]pyridine] was tested, and the “mice exhibiting complete tumor regression at day 11” value was “two” and the “inhibition against tumor growth of EBC-1 subcutaneous xenograft (in words)” value was “very significant dose dependent inhibition”.

`CC(C)N1CCC(n2cc(-c3cnc4cnn(S(=O)(=O)c5cnc6ccc(-c7cnn(C)c7)cn56)c4c3)cn2)CC1` [Example 145, 1-{(6-[(1-methyl)-4-pyrazolyl]-imidazo[1,2-a]pyridine)-3-sulfonyl}-6-{(1-[(1-isopropyl)-4-piperidinyl]}-4-pyrazolyl}-1-H-pyrazolo[4,3-b]pyridine] was tested, and the “mice exhibiting complete tumor regression at day 18” value (50 mg/kg po, day 18) was “two”, the “mice exhibiting complete tumor regression at day 11” value was “two” and the “inhibition against tumor growth of EBC-1 subcutaneous xenograft (in words)” value was “very significant dose dependent inhibition”.
